In general, Kd refers to the constant that tells how readily two partners part at equilibrium. Read a high Kd as weaker binding.

Chains of the proteins cited; added tags and fusions are not shown. Lines headed by an entry give the natural chain unless they say otherwise; changes in a name come on top.
UniProt P63045: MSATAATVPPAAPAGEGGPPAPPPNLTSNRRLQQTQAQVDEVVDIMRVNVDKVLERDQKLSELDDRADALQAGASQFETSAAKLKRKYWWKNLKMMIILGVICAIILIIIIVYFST
UniProt P21707: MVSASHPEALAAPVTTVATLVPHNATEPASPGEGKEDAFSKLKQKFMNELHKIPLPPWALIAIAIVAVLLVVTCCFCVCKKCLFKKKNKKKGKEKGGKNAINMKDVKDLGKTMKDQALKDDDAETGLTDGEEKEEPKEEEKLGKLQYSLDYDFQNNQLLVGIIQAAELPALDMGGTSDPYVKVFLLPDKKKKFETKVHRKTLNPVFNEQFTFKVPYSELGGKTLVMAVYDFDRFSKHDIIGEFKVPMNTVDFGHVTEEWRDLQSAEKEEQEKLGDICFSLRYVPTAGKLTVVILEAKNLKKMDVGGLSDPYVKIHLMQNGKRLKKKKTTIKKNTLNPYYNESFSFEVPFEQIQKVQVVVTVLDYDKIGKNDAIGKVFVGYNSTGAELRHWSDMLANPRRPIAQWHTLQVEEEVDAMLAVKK

One substance from publication PMC5757840 can be followed below.

In the experiment the target is SNARE^Q/Cpx^48-73 subcomplex (rat) (UniProt P63045). Briefly: ITC.

Turning to “Syt1 C2B^KA-Q mutant (K326A/K327A with R281A/E295A/Y338W/R398A/R399A) (from UniProt P21707 271-421) (domain or fragment)”, the Kd amounted to 16 µM.
